Experimental data: patent publication US12551567B2, “Bicyclic peptide ligands specific for PD-L1” (BicycleRD Limited, priority 2018, dated 2026)

Protein sequences, listed by entry. Tags and fused reporters are not part of them. Residues count along the entry.
UniProt Q9NZQ7, 19-290: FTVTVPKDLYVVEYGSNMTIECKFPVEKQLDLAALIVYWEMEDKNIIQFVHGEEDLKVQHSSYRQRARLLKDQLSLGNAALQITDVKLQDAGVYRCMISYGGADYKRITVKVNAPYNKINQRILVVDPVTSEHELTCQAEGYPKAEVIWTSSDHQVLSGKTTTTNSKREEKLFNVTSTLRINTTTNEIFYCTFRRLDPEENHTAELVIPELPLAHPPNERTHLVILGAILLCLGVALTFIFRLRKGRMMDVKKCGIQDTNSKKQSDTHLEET

What was measured:
[1] = target: T1, human PD-L1 (Homo sapiens, UniProt Q9NZQ7); experiment: PD-L1 Direct Binding Assay (fluorescence polarisation); details: 25° C., TBMB scaffold
Procedure: Affinity of the peptides of the invention for human PD-L1 (Ki) was determined using a fluorescence polarisation assay, in accordance with the methods disclosed in WO2016/067035. Peptides of the invention with a fluorescent tag (either fluorescein, SIGMA or Alexa Fluor488™, Fisher Scientific) were diluted to 2.5 nM in PBS with 0.01% tween 20 or 50 mM HEPES with 100 mM NaCl and 0.01% tween pH 7.4 (both referred to as assay buffer). This was combined with a titration of protein in the same assay buffer as the peptide to give 1 nM peptide in a total volume of 25 μL in a black walled and bottomed low bind low volume 384 well plates, typically 5 μL assay buffer, 10 μL protein then 10 μL fluorescent peptide. One in two serial dilutions were used to give 12 different concentrations with top concentrations ranging from 500 nM for known high affinity binders to 10 μM for low affinity binders and selectivity assays. Measurements were conducted on a BMG PHERAstar FS equipped with an “FP 485 520 520” optic module which excites at 485 nm and detects parallel and perpendicular emission at 520 nm. The PHERAstar FS was set at 25° C. with 200 flashes per well and a positioning delay of 0.1 second, with each well measured at 5 to 10 minute intervals for 60 minutes. The gain used for analysis was determined for each tracer at the end of the 60 minutes where there was no protein in the well. Data was analysed using Systat Sigmaplot version 12.0. mP values were fit to a user defined quadratic equation to generate a Kd value: f=ymin+(ymax−ymin)/Lig*((x+Lig+Kd)/2−sqrt((((x+Lig+Kd)/2)^2)−(Lig*x))). “Lig” was a defined value of the concentration of tracer used.

[2] = target: T1, human PD-L1; experiment: PD-L1 Competition Binding Assay (fluorescence polarisation, tracer BCY585); details: fluorescence polarisation competition with BCY585, TBMB scaffold
Procedure: Peptides were diluted to an appropriate concentration in assay buffer as described in the direct binding assay with a maximum of 5% DMSO, then serially diluted 1 in 2. Five μL of diluted peptide was added to the plate followed by 10 μL of human PD-L1, then 10 μL fluorescent peptide added. Measurements were conducted as for the direct binding assay, however the gain was determined prior to the first measurement. Data analysis was in Systat Sigmaplot version 12.0 where the mP values were fit to a user defined cubic equation to generate a Ki value: f=ymin+(ymax−ymin)/Lig*((Lig*((2*((Klig+Kcomp+Lig+Comp−Prot*c)^2−3*(Kcomp*(Lig−Prot*c)+Klig*(Comp−Prot*c)+Klig*Kcomp))^0.5*COS(ARCCOS((−2*(Klig+Kcomp+Lig+Comp−Prot*c)^3+9*(Klig+Kcomp+Lig+Comp−Prot*c)*(Kcomp*(Lig−Prot*c)+Klig*(Comp−Prot*c)+Klig*Kcomp)−27*(−1*Klig*Kcomp*Prot*c))/(2*((((Klig+Kcomp+Lig+Comp−Prot*c)^2−3*(Kcomp*(Lig−Prot*c)+Klig*(Comp−Prot*c)+Klig*Kcomp))^3)^0.5)))/3))−(Klig+Kcomp+Lig+Comp−Prot*c)))/((3*Klig)+((2*((Klig+Kcomp+Lig+Comp−Prot*c)^2−3*(Kcomp*(Lig−Prot*c)+Klig*(Comp−Prot*c)+Kig*Kcomp))^0.5*COS(ARCCOS((−2*(Klig+Kcomp+Lig+Comp−Prot*c)^3+9*(Klig+Kcomp+Lig+Comp−Prot*c)*(Kcomp*(Lig−Prot*c)+Klig*(Comp−Prot*c)+Klig*Kcomp)−27*(−1*Klig*Kcomp*Prot*c))/(2*((((Klig+Kcomp+Lig+Comp−Prot*c)^2−3*(Kcomp*(Lig−Prot*c)+Klig*(Comp−Prot*c)+Klig*Kcomp))^3)^0.5)))/3))−(Klig+Kcomp+Lig+Comp−Prot*c)))).
“Lig”, “KLig” and “Prot” were all defined values relating to: fluorescent peptide concentration, the Kd of the fluorescent peptide and PD-L1 concentration respectively.

[3] = target: T1, human PD-L1; experiment: PD-L1 SPR Binding Assay (Biacore); design: purchased Sino Biologicals or R&D systems; details: Biacore 3000, biotinylated PD-L1 captured on streptavidin, 25° C.
Procedure: Biacore experiments were performed to determine ka (M^−1s^−1), kd (s^−1), KD (nM) values of monomeric peptides binding to human PD-L1 protein. […] The protein was desalted to remove uncoupled biotin using spin columns into PBS. For analysis of binding, a Biacore 3000 instrument was used utilizing a CM5 sensor chip (GE Healthcare). Streptavidin was immobilized on the chip using standard amine-coupling chemistry at 25° C. with HBS-N (10 mM HEPES, 0.15 M NaCl, pH 7.4) as the running buffer. The carboxymethyl dextran surface was activated with a 12 min injection of a 1:1 ratio of 0.4 M 1-ethyl-3-(3-dimethylaminopropyl) carbodiimide hydrochloride (EDC)/0.1 M N-hydroxy succinimide (NHS) at a flow rate of 10 μl/min. For capture of streptavidin, protein was diluted to 0.1 mg/ml in 10 mM sodium acetate (pH 4.5) and captured by injecting 70 μl onto the activated chip surface. Residual activated groups were blocked with a 7 min injection of 1 M ethanolamine (pH 8.5). Biotinylated PD-L1 stock was diluted 1:100 in HBS-N and captured on one flow cell at 5 μl/min to a level of 1000-1300 RU. Buffer was changed to PBS/0.05% Tween 20 and a dilution series of the peptides was prepared in this buffer with a final DMSO concentration of 0.5%. The top concentrations were 200 nM or 500 nM with 6 2-fold dilutions. The SPR analysis was run at 25° C. at a flow rate of Flow rate 50 μl/min with 60 seconds association and 400 seconds disassociation. Data were corrected for DMSO excluded volume effects. All data were double-referenced for blank injections and reference surface using standard processing procedures and data processing and kinetic fitting were performed using Scrubber software, version 2.0c (Biologic Software). Data were fitted using mass transport model allowing for mass transport effects where appropriate.

ACPDNNSICHLWCA [BCY514] gave a Kd ([1]; read-out: Kd) of 165 nM and a Ki [2] of 165 ± 159 nM.
For ACPDNNSICHLWCA[Sar]6[KFI] [BCY550], the Kd ([1]; read-out: Kd) was 322 ± 22.5 nM.
With ACPDPHGICHLWCA [BCY515] the Kd ([1]; read-out: Kd) was 51.2 nM, the Ki [2] was 51.2 ± 63 nM and the Kd [3] was 212 nM.
ACPDPHNICHLWCA [BCY516] gave a Kd ([1]; read-out: Kd) of 48.8 nM, a Ki [2] of 48.8 ± 54.4 nM and a Kd [3] of 171 nM.
Substance ACPFPEEWCPRCA [BCY508] has a Kd ([1]; read-out: Kd) of 75.1 nM and a Ki [2] of 75.1 ± 53.5 nM.
ACPFPPHWCPRQCA[Sar]6[KFI] [BCY551] showed a Kd ([1]; read-out: Kd) of 596 nM.
ACPFPVEWCPRCA [BCY509] showed a Kd ([1]; read-out: Kd) of 7.88 nM, a Ki [2] of 6.53 ± 7.68 nM and a Kd [3] of 24.1 nM.
Substance ACPFPVEWCPRCA[Sar]6[KFI] [BCY546] has a Kd ([1]; read-out: Kd) of 48.7 ± 8.42 nM.
For ACPFPVEWCSRCA [BCY507], the Kd ([1]; read-out: Kd) was 157 nM and the Ki [2] was 157 ± 24.2 nM.
Substance ACPFPVEWCSRCA[Sar]6[KFI] [BCY543] has a Kd ([1]; read-out: Kd) of 779 ± 25.5 nM.
In the case of [FI]G[Sar]5ACPDNNSICHLWCA [BCY583], the Kd ([1]; read-out: Kd) is reported as 199 ± 69.4 nM.
For [FI]G[Sar]5ACPDPHGICHLWCA [BCY584], the Kd ([1]; read-out: Kd) was 88.5 ± 21.6 nM.
[FI][B-Ala][Sar]5ACPFPEEWCPRCA [BCY544] gave a Kd [1] of 370 nM.
[FI][B-Ala][Sar]5ACPFPVEWCPRCA [BCY545] gave a Kd [1] of 65.7 ± 23.5 nM.
